Reference: ChEMBL document CHEMBL1909046, “DrugMatrix in vitro pharmacology data”

Sequences of proteins named here, by UniProt entry; tags and fusion partners are left off. A change or cut given only in a name is not applied to a line headed by its entry.
UniProt P08588, whole entry: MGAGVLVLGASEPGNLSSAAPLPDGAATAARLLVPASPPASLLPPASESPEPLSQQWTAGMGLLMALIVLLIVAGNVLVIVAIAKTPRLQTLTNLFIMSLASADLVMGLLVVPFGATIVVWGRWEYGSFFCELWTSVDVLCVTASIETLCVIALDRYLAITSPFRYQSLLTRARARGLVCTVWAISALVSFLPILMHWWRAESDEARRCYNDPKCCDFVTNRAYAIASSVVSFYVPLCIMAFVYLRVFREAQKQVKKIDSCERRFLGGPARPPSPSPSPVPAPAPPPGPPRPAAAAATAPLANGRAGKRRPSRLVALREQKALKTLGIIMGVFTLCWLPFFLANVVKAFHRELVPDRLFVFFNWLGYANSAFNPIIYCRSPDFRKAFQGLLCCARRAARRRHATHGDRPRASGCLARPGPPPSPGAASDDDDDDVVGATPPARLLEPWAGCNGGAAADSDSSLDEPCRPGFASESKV
UniProt P11712, whole entry: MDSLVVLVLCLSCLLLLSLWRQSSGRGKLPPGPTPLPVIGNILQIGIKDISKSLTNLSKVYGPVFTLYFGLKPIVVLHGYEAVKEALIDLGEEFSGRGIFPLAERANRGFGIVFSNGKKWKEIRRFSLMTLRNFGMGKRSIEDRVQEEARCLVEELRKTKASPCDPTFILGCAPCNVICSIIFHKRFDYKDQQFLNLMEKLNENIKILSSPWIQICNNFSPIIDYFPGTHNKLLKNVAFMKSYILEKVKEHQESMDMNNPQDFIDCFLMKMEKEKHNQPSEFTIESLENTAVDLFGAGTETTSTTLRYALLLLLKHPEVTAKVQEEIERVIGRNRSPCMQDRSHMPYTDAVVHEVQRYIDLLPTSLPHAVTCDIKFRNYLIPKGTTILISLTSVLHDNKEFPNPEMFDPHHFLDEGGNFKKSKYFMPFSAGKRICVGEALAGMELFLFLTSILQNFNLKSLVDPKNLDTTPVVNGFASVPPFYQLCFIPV
UniProt P10635, whole entry: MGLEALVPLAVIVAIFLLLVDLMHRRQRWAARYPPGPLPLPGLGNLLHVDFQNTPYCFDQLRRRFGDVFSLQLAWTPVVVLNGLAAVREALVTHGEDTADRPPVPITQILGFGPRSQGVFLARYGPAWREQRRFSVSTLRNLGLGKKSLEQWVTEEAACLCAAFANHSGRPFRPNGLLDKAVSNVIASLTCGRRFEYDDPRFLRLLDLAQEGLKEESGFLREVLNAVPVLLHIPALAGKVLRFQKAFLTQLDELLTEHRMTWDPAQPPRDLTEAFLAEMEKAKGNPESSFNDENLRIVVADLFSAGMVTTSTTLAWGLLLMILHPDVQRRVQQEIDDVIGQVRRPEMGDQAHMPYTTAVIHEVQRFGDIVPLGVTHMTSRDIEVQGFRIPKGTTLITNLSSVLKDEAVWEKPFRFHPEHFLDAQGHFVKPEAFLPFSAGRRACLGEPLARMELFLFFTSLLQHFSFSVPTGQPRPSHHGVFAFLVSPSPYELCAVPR
UniProt Q12809: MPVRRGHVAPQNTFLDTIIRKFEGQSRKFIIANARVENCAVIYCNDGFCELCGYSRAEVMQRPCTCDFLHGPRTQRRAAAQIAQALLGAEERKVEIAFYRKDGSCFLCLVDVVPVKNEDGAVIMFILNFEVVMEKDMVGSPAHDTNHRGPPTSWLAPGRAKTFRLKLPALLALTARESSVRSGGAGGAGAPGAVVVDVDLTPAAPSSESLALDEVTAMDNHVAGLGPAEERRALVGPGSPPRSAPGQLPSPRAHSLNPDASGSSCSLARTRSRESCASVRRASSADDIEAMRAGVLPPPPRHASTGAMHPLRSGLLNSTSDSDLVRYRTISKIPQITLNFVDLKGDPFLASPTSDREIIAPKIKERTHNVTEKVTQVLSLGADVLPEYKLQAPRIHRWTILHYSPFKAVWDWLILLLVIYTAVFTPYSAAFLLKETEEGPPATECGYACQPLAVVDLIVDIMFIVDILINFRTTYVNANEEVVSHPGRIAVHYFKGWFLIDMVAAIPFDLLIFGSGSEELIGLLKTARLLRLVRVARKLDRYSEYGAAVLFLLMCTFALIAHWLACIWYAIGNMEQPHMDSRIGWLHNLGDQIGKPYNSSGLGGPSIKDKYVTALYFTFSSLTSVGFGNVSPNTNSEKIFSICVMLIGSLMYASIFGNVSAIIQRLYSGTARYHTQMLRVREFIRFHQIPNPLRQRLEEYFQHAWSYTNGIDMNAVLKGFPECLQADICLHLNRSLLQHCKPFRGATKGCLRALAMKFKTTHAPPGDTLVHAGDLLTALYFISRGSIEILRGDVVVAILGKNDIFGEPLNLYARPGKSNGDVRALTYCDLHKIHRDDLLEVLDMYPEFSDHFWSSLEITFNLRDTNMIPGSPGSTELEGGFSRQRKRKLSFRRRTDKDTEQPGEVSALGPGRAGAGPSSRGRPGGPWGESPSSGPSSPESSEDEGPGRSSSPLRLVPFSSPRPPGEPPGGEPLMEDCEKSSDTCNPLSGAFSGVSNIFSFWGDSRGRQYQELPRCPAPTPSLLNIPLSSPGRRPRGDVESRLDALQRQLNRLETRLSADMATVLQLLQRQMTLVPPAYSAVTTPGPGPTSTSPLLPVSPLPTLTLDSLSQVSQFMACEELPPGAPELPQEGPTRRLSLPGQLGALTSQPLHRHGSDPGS
UniProt P35462, whole entry: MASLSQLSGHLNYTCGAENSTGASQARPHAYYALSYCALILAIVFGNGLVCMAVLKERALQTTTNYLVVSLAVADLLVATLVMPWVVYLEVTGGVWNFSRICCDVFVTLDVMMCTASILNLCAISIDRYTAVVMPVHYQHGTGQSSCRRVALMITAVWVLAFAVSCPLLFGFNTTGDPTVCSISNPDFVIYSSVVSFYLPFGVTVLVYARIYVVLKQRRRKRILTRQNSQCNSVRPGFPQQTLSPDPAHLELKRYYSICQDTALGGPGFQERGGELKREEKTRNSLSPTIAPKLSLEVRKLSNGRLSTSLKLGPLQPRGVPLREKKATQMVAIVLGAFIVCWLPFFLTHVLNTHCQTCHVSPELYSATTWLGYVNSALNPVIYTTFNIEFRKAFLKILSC
UniProt P21397, whole entry: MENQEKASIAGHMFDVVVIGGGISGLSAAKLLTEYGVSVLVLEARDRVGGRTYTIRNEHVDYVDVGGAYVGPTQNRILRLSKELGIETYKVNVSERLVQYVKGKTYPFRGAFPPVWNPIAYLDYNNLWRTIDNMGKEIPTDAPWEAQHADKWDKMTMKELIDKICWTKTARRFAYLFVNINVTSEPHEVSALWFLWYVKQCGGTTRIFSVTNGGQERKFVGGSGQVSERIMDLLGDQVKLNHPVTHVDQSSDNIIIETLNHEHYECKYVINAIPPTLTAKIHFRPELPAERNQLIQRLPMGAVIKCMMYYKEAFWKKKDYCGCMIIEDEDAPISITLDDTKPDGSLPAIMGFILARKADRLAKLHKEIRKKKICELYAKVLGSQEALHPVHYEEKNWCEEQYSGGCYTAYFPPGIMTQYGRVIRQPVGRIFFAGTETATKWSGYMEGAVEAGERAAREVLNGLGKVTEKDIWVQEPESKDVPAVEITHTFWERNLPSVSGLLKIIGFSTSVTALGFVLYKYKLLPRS
UniProt P23219, whole entry: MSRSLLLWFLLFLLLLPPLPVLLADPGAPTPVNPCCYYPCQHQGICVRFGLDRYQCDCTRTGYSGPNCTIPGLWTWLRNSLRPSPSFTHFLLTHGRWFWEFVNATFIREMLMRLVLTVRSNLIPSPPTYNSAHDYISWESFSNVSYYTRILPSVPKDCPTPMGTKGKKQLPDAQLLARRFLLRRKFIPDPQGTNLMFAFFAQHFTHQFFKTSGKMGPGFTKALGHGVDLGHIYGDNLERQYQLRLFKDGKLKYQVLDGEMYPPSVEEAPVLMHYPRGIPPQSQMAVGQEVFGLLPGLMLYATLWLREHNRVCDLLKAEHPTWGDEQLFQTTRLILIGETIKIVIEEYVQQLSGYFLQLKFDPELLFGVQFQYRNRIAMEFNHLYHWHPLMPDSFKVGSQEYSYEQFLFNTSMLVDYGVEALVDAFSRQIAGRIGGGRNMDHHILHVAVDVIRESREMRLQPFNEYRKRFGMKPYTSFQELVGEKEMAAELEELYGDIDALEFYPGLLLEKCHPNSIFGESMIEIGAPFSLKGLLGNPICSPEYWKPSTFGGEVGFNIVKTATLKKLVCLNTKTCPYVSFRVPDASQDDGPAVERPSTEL
UniProt P05177, whole entry: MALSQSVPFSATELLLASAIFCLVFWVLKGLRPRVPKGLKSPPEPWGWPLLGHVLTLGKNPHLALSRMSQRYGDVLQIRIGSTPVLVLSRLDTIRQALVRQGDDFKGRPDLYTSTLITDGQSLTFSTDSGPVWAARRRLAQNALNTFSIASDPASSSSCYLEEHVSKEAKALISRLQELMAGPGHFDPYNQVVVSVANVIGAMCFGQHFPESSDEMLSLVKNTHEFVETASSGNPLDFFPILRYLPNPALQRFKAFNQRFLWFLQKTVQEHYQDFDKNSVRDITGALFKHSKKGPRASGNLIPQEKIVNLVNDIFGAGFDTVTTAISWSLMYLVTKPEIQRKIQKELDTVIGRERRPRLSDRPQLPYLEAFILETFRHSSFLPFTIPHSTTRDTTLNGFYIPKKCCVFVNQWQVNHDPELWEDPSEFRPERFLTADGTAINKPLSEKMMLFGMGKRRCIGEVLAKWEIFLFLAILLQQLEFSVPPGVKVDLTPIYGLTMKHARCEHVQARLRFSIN
UniProt P08913, whole entry: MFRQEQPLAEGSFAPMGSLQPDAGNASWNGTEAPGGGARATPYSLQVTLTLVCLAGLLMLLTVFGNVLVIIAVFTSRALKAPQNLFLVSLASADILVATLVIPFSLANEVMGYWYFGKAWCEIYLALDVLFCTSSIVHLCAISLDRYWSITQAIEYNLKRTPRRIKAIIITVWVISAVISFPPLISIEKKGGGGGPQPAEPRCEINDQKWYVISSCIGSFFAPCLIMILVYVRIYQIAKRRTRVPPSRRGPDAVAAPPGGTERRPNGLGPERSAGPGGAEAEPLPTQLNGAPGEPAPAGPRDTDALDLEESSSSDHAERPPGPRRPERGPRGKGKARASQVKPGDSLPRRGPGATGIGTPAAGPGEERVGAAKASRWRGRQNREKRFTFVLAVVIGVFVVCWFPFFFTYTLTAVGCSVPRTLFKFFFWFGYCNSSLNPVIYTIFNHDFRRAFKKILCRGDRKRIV
UniProt P18825, whole entry: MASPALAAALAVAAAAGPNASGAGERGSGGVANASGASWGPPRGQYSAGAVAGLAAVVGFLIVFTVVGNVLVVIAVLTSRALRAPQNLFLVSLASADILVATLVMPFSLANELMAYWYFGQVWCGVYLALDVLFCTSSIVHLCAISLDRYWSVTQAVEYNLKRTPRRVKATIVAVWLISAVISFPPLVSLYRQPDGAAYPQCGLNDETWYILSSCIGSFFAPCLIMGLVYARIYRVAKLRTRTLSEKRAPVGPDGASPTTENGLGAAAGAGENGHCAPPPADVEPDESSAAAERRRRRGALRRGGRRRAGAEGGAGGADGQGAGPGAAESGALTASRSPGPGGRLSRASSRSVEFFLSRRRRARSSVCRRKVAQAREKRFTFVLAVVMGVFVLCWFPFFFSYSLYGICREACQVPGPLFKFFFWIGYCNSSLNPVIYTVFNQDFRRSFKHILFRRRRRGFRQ
UniProt P15823, whole entry: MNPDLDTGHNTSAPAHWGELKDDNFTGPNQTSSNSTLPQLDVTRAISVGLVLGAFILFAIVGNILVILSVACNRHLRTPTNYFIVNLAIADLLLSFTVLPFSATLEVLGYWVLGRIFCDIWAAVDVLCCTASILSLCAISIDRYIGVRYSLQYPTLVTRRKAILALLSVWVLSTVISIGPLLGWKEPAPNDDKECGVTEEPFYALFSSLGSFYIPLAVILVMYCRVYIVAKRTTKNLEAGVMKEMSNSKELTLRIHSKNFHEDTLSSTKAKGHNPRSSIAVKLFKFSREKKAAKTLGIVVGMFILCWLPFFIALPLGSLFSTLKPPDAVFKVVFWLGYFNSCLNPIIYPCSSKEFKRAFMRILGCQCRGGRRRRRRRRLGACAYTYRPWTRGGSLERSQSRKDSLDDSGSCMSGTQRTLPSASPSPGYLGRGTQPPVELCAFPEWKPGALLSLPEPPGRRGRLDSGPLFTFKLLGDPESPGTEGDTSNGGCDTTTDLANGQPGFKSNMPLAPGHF

Columns and labels:
[1] = biological target: Beta-1 adrenergic receptor (Homo sapiens, UniProt P08588); assay: DRUGMATRIX: Adrenergic beta1 radioligand binding (ligand: [125I] Cyanopindolol); assay type: cell membranes, CHO-K1, Membrane; conditions: Not Active = under 50% inhibition at 10 µM
Cytochrome P450 2C9 = Cytochrome P450 2C9 (Homo sapiens, UniProt P11712); further: in other assays of this panel Not Active means under 50% inhibition at 10 µM
Cytochrome P450 2D6 = Cytochrome P450 2D6 (Homo sapiens, UniProt P10635); further: in other assays of this panel Not Active means under 50% inhibition at 10 µM
[2] = biological target: Voltage-gated inwardly rectifying potassium channel KCNH2 (Homo sapiens, UniProt Q12809); further: in other assays of this panel Not Active means under 50% inhibition at 10 µM
D(3) dopamine receptor = D(3) dopamine receptor (Homo sapiens, UniProt P35462); assay: DRUGMATRIX: Dopamine D3 radioligand binding (ligand: [3H] Spiperone); assay type: cell membranes, CHO, Membrane
[3] = biological target: Amine oxidase [flavin-containing] A (Homo sapiens, UniProt P21397); assay: DRUGMATRIX: Monoamine Oxidase MAO-A enzyme inhibition (substrate: Kynuramine); set-up: species or system BTI-TN-5B1-4; conditions: Not Active = under 50% inhibition at 10 µM
[4] = biological target: T1, 3-hydroxy-3-methylglutaryl-coenzyme A reductase (Homo sapiens, UniProt P04035); set-up: species or system Escherichia coli;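 further: enzyme inhibition assay of HMG-CoA reductase using radiolabeled [14C]HMG-CoA as substrate; in other assays of this panel Not Active means under 50% inhibition at 10 µM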
T1 sequence (P04035 whole entry): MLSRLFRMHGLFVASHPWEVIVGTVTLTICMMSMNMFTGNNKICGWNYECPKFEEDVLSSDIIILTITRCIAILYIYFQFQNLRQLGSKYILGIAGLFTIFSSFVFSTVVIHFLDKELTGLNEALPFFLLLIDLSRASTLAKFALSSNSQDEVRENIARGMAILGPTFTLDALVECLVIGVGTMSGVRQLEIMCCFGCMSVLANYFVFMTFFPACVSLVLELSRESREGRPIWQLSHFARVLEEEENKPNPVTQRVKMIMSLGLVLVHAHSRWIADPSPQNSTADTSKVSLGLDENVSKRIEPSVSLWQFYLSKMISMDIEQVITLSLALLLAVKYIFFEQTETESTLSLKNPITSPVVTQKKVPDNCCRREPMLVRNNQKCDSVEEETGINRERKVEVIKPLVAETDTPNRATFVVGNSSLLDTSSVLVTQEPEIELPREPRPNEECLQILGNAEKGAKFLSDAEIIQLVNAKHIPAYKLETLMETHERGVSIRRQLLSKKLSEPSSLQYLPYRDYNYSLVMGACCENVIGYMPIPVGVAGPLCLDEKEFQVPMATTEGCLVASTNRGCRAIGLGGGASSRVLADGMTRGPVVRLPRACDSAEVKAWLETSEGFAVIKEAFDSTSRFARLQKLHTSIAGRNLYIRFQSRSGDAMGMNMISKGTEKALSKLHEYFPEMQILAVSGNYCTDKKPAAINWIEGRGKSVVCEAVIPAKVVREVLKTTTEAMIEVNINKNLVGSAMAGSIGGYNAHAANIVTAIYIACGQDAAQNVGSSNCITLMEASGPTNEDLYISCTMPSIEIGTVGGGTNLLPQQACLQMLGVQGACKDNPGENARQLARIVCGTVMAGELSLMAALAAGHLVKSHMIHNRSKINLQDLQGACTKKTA

[5] = biological target: Prostaglandin G/H synthase 1 (Homo sapiens, UniProt P23219); assay: biochemical; assay type: tissue-based, Platelet
[6] = biological target: Receptor tyrosine-protein kinase erbB-2 (Homo sapiens, UniProt P04626); assay type: cell-based; conditions: insect cells
Cytochrome P450 1A2 = Cytochrome P450 1A2 (Homo sapiens, UniProt P05177); further: in other assays of this panel Not Active means under 50% inhibition at 10 µM
Acetylcholinesterase = Acetylcholinesterase (Homo sapiens, UniProt P22303); assay: DRUGMATRIX: Acetylcholinesterase enzyme inhibition (substrate: acetylthiocholine); assay type: cell-based, HEK293; conditions: Not Active = under 50% inhibition at 10 µM
[7] = biological target: Alpha-2A adrenergic receptor (Homo sapiens, UniProt P08913); assay type: cell membranes, Sf9, Membrane; further: in other assays of this panel Not Active means under 50% inhibition at 10 µM
[8] = biological target: Alpha-2C adrenergic receptor (Homo sapiens, UniProt P18825); assay: DRUGMATRIX: Adrenergic Alpha-2C radioligand binding (ligand: [3H] MK-912); assay type: cell membranes, Sf9, Membrane
[9] = biological target: T2, Alpha-1A adrenergic receptor (Rattus norvegicus, UniProt P43140); assay: DRUGMATRIX: Alpha-1A adrenergic receptor radioligand binding (ligand: prazosin); assay type: cell membranes, Wistar, Submaxillary gland, Membrane; conditions: Not Active = under 50% inhibition at 10 µM
T2 sequence (P43140 whole entry): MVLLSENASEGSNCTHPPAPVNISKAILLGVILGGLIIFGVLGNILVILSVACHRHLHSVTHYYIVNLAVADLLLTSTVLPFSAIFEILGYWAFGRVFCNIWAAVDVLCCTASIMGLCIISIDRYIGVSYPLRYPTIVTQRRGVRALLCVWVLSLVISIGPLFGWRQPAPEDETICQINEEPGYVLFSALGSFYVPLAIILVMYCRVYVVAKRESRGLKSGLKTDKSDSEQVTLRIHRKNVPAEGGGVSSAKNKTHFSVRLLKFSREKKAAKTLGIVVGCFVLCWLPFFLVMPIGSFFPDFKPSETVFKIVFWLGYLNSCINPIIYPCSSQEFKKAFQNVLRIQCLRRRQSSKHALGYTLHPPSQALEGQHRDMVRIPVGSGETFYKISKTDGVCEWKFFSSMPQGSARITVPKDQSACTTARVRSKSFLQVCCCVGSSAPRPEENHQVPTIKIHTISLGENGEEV

[10] = biological target: Alpha-1B adrenergic receptor (Rattus norvegicus, UniProt P15823); assay: DRUGMATRIX: Alpha-1B adrenergic receptor radioligand binding (ligand: prazosin); assay type: cell membranes, Wistar, Liver, Membrane; conditions: Not Active = under 50% inhibition at 10 µM

CC(C)NCC(O)c1ccc(NS(C)(=O)=O)cc1 (configuration not stated) [SOTALOL]
IC50 [1]: 1.44 µM
Ki [1]: 0.833 µM

C#C[C@]1(O)CC[C@H]2[C@@H]3CCC4=Cc5oncc5C[C@]4(C)[C@H]3CC[C@@]21C [DANAZOL]
IC50 (Cytochrome P450 2C9): 0.3 µM

COc1cc(N)c(Cl)cc1C(=O)NC1CCN(CCCOc2ccc(F)cc2)CC1OC (configuration not stated) [CISAPRIDE]
IC50 (Cytochrome P450 2D6): 0.07 µM

CNCCCN1c2ccccc2CCc2ccccc21 [DESIPRAMINE]
IC50 [2]: 27.8 µM
Ki [2]: 22.8 µM

CCN1CCC[C@H]1CNC(=O)c1cc(S(N)(=O)=O)ccc1OC [LEVOSULPIRIDE]
IC50 (D(3) dopamine receptor): 0.123 µM
Ki (D(3) dopamine receptor): 0.042 µM

NNCCc1ccccc1 [PHENELZINE]
IC50 [3]: 0.146 µM

COc1ccc2cc(CCC(C)=O)ccc2c1 [NABUMETONE]
IC50 [3]: 0.998 µM

CCN1CCCC1CNC(=O)c1cc(S(N)(=O)=O)ccc1OC (configuration not stated) [SULPIRIDE]
IC50 (D(3) dopamine receptor): 0.169 µM
Ki (D(3) dopamine receptor): 0.057 µM

CC(C)c1c(C(=O)Nc2ccccc2)c(-c2ccccc2)c(-c2ccc(F)cc2)n1CC[C@@H](O)C[C@@H](O)CC(=O)O [ATORVASTATIN]
IC50 [4]: 0.000227 µM

O=C(O)c1cccnc1Nc1cccc(C(F)(F)F)c1 [NIFLUMIC ACID]
IC50 [5]: 1.06 µM

CADMIUM DICHLORIDE
IC50 [6]: 1.33 µM

O=C(O)CCc1nc(-c2ccccc2)c(-c2ccccc2)o1 [OXAPROZIN]
IC50 [5]: 0.856 µM

COc1cc(NC(C)CCCN)c2ncccc2c1 (configuration not stated) [PRIMAQUINE]
IC50 (Cytochrome P450 1A2): 0.182 µM

CCN(CC)CCCC(C)Nc1c2ccc(Cl)cc2nc2ccc(OC)cc12 (configuration not stated) [QUINACRINE]
IC50 (Acetylcholinesterase): 2.67 µM

CC(C)C[C@H]1C(=O)N2CCC[C@H]2[C@]2(O)O[C@](NC(=O)[C@@H]3C=C4c5cccc6[nH]c(Br)c(c56)C[C@H]4N(C)C3)(C(C)C)C(=O)N12 [BROMOCRIPTINE]
IC50 [7]: 0.015 µM
Ki [7]: 0.00553 µM
IC50 [8]: 0.52 µM
Ki [8]: 0.076 µM

CNC[C@H](O)c1ccc(O)c(O)c1 [EPINEPHRINE]
IC50 [9]: 0.628 µM
Ki [9]: 0.254 µM
IC50 [10]: 1.77 µM
Ki [10]: 0.977 µM

CC[C@H](C)C(=O)O[C@H]1C[C@H](O)C=C2C=C[C@H](C)[C@H](CC[C@@H](O)C[C@@H](O)CC(=O)O)[C@H]21 [PRAVASTATIN]
IC50 [4]: 0.00559 µM
